The text below walks through data of patent publication US20140377171A1, “Imaging and Treatment of Neuroendocrine Tumors with Glucose - Dependent Insulinotropic Polypeptide or Analogues or Antagonists Thereof” (priority 2011, published 2014).

One assay has as its target T1, GIP receptors (Homo sapiens, UniProt P48546).
T1 construct: from tissue; host or cells: fresh frozen human tumor tissue (neuroendocrine tumors) and non-neoplastic human tissue (pancreatic islets) from surgical resection
T1 sequence (P48546 22-466): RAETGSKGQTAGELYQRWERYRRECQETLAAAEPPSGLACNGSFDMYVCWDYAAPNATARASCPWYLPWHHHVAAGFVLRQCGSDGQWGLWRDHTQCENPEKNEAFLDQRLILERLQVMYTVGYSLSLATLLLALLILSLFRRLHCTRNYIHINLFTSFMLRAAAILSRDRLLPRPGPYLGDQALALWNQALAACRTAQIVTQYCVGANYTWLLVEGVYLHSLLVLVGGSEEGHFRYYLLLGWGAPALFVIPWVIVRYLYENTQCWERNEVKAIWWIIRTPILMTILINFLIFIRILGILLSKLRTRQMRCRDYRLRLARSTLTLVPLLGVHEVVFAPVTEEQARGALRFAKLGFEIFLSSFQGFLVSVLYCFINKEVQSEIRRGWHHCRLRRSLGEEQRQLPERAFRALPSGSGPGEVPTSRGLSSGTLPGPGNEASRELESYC
The assay can be described thus: In vitro GIP receptor autoradiography: displacement of 125I-GIP(1-30) in tissue sections. The format is binding. Here is the method:
It was radiolabeled by the lactoperoxidase method and purified by HPLC (Anawa, Wangen, Switzerland). The two lodo-Tyrosine analogues (peak 1 iodinated at Tyr^1 and peak 2 iodinated at Tyr^10) were analyzed by LC-ESI-MS-MS (R. Brunisholz, Functional Genomics Center Zürich, ETHZ). […] After incubation, the slides were washed five times in ice-cold Tris-HCl buffer (170 mM; pH 8.2) containing 0.25% BSA and twice in ice-cold Tris-HCl buffer without BSA. The slides were dried for 15 minutes under a stream of cold air and then exposed to Kodak films Biomax MR® for seven days at 4° C. The signals on the films were analyzed in correlation with morphology using corresponding H&E stained tissue slides. The receptor density was quantitatively assessed using tissue standards for iodinated compounds (Amersham, Aylesbury, UK) and a computer-assisted image processing system (Analysis Imaging System, Interfocus, Mering, Germany).

Assay [1] relates to normal pancreatic β-cells, hippocampus and tumoral MC-26 tissues. Particulars: cited from earlier work.

Turning to “glucose-dependent insulinotropic polypeptide [GIP]”, on GIP receptors (100 nM unlabeled peptide (non-specific binding)), the “displacement of 125I-GIP(1-30) binding at the receptors” value was “completely and specifically displaces”. In addition, the “displacement of 125I-GIP(1-30) (affinity)” value on GIP receptors (increasing concentrations of cold peptide, tumor and normal pancreatic islets, all examples) is listed as “high affinity in the nanomolar concentration range”. In addition, the cell proliferation result in assay [1] is “stimulate cell proliferation”.
